Apparent affinities of Ab-14 variants for a coronavirus HR2 peptide

Values reported by Li et al. 2023, doi:10.1038/s41467-023-39022-2 (FLAb copy).

Target peptide (SARS-CoV-2 spike, HR2 region): PDVDLGDISGINAS

Ab-14 is the parent antibody, in scFv form: VH, then a 15-residue (Gly4Ser)3 linker, then VL. The light chain is unchanged in all variants.
VH: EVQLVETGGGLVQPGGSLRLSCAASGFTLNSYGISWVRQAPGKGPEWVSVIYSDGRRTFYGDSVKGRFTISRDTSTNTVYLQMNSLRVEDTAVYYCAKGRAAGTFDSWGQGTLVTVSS
VL: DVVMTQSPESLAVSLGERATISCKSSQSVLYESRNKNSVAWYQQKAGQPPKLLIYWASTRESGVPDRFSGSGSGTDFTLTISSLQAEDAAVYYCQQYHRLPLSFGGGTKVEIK

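Phage display of a naive human antibody library on the peptide gave the parent. The variants were designed computationally from a first round of random CDR variants and then made and measured. Several design methods are mixed in this list. The assay is AlphaSeq: two haploid yeast populations carry antibody and antigen on their surface. Pairs that bind mate more often; barcode pairs of the diploids are counted by sequencing. Read counts were normalised to the haploid input and turned into Kd by a linear fit to BCL2-family pairs of known affinity, for each replicate. Each pool was mated in six replicate cultures.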

The parent's heavy chain CDRs are GFTLNSYGIS, VIYSDGRRTFYGDSVK, GRAAGTFDS; each variant's own CDRs replace them letter for letter.
Variants here have at most six changes.
Values are apparent Kd, the geometric mean of the replicates that gave a signal; lower means stronger binding.
A pair that was not seen in any replicate is written "nd"; this usually means weak binding, but a binder can also be missed.
The authors averaged sequences with at least three values out of six and counted those with two or fewer as poor binders.

For GFKLNSYGIS | VIYSDGRRTFYDDSVK | GQVAGTFDS, the assay gave 3.2 nM (6 of 6 replicates; controls 0 of 18). For GFTLNSYGIS | VIYSDGKRTFYGDDVK | GQAAGTFDT, the assay gave 6.5 nM (6 of 6 replicates; controls 0 of 18). The variant GFQLNEYGIS | VIYSDGRRTFYHDSVK | GRHAGTFDS showed 5.8 nM (6 of 6 replicates; controls 0 of 18). For GITLNSYGIS | VIYSDGRRTFYGDNVK | GRAAGTFDS, the assay gave 310 nM (3 of 6 replicates; controls 1 of 18). For GFTLNDYGIS | VIYSDGQRTFYSDSVK | GRAAGTFDS, the assay gave 59 nM (6 of 6 replicates; controls 0 of 18). The variant GFTLDSYGIS | VIYSRGRRTFYGDSVK | GRAAGTALS gave nd (0 of 6 replicates; controls 0 of 18). For GFELNSYGIS | VIYSDGRRTFYTDSVK | GQTAGTFDS, the assay gave 3.1 nM (5 of 6 replicates; controls 0 of 18). The variant GFTLNDYGIS | VIYSDGRRTFYGDSVK | GGIAGTFDS gave 390 pM (6 of 6 replicates; controls 0 of 18).

With GFTLNEYGIS | VIYSDGRRTFYTDSVK | GRMAGTFIS the result was nd (0 of 6 replicates; controls 0 of 18). With GFDLNSYGIS | VIYSDGRRTFYADKVK | GNAAGTFDS the result was 2.7 nM (6 of 6 replicates; controls 1 of 18). The variant GFDLNSYGIS | VIYSDGQRTFYGDAVK | GRTAGTFDS showed 4.0 nM (4 of 6 replicates; controls 0 of 18). With GFTLNSYGIS | VIYSDGRRTFYSDSVK | GQNAGTFDS the result was nd (0 of 6 replicates; controls 0 of 18). With GFTLNEYGIS | VIYSDGLRTFYTDSVK | GQAAGTFDS the result was 4.5 nM (6 of 6 replicates; controls 0 of 18). The variant GFWLNEYGIS | VIYSDGRRTWYGDSVK | GRTAGTFDS gave 15 nM (6 of 6 replicates; controls 0 of 18). With GFTLNSYGIS | VIYSDGRRTFYGDSTK | GRAAGTFDS the result was nd (0 of 6 replicates; controls 1 of 18). The variant GFQLNSYGIS | VIYADGRRTFYGDSVK | GQAAGTFDD showed 1.4 nM (6 of 6 replicates; controls 0 of 18).

The variant GFTLNEYGIS | VIYSDGRRTFYQDSVK | GRFAGTFDV gave 4.2 nM (6 of 6 replicates; controls 0 of 18). The variant GFTLNEYGIS | VIYSDGRRTFYYDSVK | GRHAGTFDS gave nd (0 of 6 replicates; controls 0 of 18). With GNTLNEYGIS | VIYSDGRRTFYGDSVK | GRMAGTFDI the result was 59 nM (1 of 6 replicates; controls 1 of 18). The variant GFVLNDYGIS | VIYSDGRRTWYIDSVK | GRAAGTFDS showed nd (0 of 6 replicates; controls 0 of 18). The variant GFSLNSYGIS | VIYSDGRRTVYGDSVK | GRNAGTFDS showed nd (0 of 6 replicates; controls 0 of 18). The variant GFELNSYGIS | VIYSDGRRTFYSDSVK | GKAAGTFDT showed 1.4 nM (6 of 6 replicates; controls 0 of 18). For GFNLNSYGIS | VIYSDGRRTFYIDSVK | GHAAGTFDS, the assay gave 28 nM (1 of 6 replicates; controls 0 of 18). With GFSLNSYGIS | VIYSDGRRTFYVDSVK | GKQAGTFDS the result was 27 nM (6 of 6 replicates; controls 0 of 18).

The variant GFQLNSYGIS | VIYSDGRRTFYADSVK | GRAAGTFDS showed 1.3 nM (6 of 6 replicates; controls 1 of 18). The variant GFTLNSYGIS | VIYADGQRTFYGDFVK | GRAAGTFES showed 170 nM (4 of 6 replicates; controls 0 of 18). The variant GFTINSYGIS | VIYSDGERTFYGDSVK | GRAAGTFDS gave 61 nM (5 of 6 replicates; controls 0 of 18). With GFQLNDYGIS | VIYSDGRRTFYGDSVK | GRQAGTFDS the result was 6.3 nM (6 of 6 replicates; controls 0 of 18). The variant GFDLNSYGIS | VIYSDGRRTFYGDSVK | GQEAGTFDQ gave 1.3 nM (6 of 6 replicates; controls 0 of 18). The variant GFELNSYGIS | VIYSDGRRTFYADAVK | GRNAGTFDS showed 5.0 nM (6 of 6 replicates; controls 1 of 18). The variant GFTLNDYGIS | VIGSDGRSTQIIDSVK | GRAAGTFDS gave nd (0 of 6 replicates; controls 0 of 18). With GFSLNSYGIS | VIYSDGRRTFYGDEVK | GKTAGTFDS the result was 5.6 nM (6 of 6 replicates; controls 0 of 18).

The variant GFTLNSYGIS | VIYSDGRRTFYGDSVK | HRAVGTFHS gave nd (0 of 6 replicates; controls 0 of 18). The variant GFTLNEYGIS | VIYSDGRRTFYGNSVK | GRFAGTFDS gave 94 nM (4 of 6 replicates; controls 0 of 18). With GFTLNSYGHS | VIYSDGRRTFYGDSVK | GRAAGTFDA the result was nd (0 of 6 replicates; controls 0 of 18). For GFTLNSYGIS | VIYSDGRRTFYVDSVK | GRAAGTFDL, the assay gave 14 nM (6 of 6 replicates; controls 1 of 18). The variant GFSLNSYGIS | VIYSDGRRTFYGDSVK | GKTAGTFDR gave 2.2 nM (6 of 6 replicates; controls 0 of 18). The variant GFGLNSYGIS | VIYSDGRRTFYQDSVK | GRTAGTFDS showed 9.7 nM (6 of 6 replicates; controls 0 of 18). With GFDLNEYGIS | VIYADGRRTAYADSVK | GHAAGTFDS the result was 300 pM (6 of 6 replicates; controls 0 of 18). The variant GFNLNMYGSS | VIYADGRRTFYGDSVK | GRAAGTAHS gave 44 nM (1 of 6 replicates; controls 0 of 18).

From the list, the first 2 with no signal in any replicate:

With GFTLDSYGIS | VIYSRGRRTFYGDSVK | GRAAGTALS the result was nd (0 of 6 replicates; controls 0 of 18).
With GFTLNEYGIS | VIYSDGRRTFYTDSVK | GRMAGTFIS the result was nd (0 of 6 replicates; controls 0 of 18).

As a blank, each scFv also met three strains without target: over all heavy chain designs, 1% of these pairings were detected, typically at 120 nM and seldom below 7.0 nM. For each scFv, signals with the empty controls are counted beside the result.
Values of this round are not directly comparable with the first-round values of the same sequences.